Reference: patent US7057059B2, “Tumor-inhibiting platinum (II) oxalate complexes” (Faustus Forschungs CIE. Translational Cancer Research GmbH, priority 2002, dated 2006)

Assays:
[1] = system: 41M (adenocarcinoma of the ovary); settings: read-out: LC50; cell line 41M, MTT, 96 h
Procedure: (§1) The cytotoxicity of the compounds according to Examples 1 and 2 was tested by using the following cell lines 41M, CH1 and SW480. In this respect the following method was selected:
(§2) In this regard, adherent monolayer cultures of the following cell lines were used: 41M (adenocarcinoma of the ovary), CH1 (adenocarcinoma of the ovary), SW480 (adenocarcinoma of the colon; primary resistance to cisplatinum).
(§3) Culture conditions: The cells were kept in 75 cm^2 culture flasks at 37° C. and moist atmosphere (5% CO2). Minimal Essential Medium (MEM) was used as culture medium, with 2 mmol/l I-glutamine, 1 mmol/l sodium pyruvate, 50 IU/ml penicillin, 50 μg/ml streptomycin and 10% heat-inactivated foetal bovine serum.
(§4) Test execution: Cell suspensions were obtained from subconfluent cultures by treatment with trypsin and seeded in defined density in 96-well microculture plates. The initial density was selected such that for the complete test duration an exponential growth of the cultures was guaranteed. For the cell line 41M this was 4·10^4 cells/ml, for CH1 1.25·10^4 cells/ml and for SW480 1.5·10^4 cells/ml. The plates were incubated for 24 h under standard conditions to achieve cell establishment. Then the compounds to be tested were introduced in ten-staged concentration series in the culture medium (without addition of organic solvents or dissolving agents) into the plates and left for the complete test duration (96 h). Per experiment each concentration was tested on eight microcultures of the same cell line. At the end of the experiment the respective number of living cells in the microculture was determined spectrophotometrically (at 550 nm) using the MTT-dye reaction in relationship to the untreated control cultures. Equally, the number of living cells in microculture plates started in parallel was quantified at the start of the active substance exposition. […] The mean values were used for the evaluation.

[2] = system: CH1 (adenocarcinoma of the ovary); settings: read-out: LC50; cell line CH1, MTT, 96 h
Procedure: as §1, §2, §3, §4

[3] = system: SW480 (adenocarcinoma of the colon; primary resistance to cisplatinum); settings: read-out: LC50; cell line SW480, MTT, 96 h
Procedure: as §1, §2, §3, §4

[4] = system: animals free of tumors; test: MTD study on animals free of tumors; settings: Qd×5, animals free of tumors

**Q.** “(SP-4-3)-(4-methyl-trans-cyclohexane-1,2-diamine)oxalatoplatinum (II) [[(4-methyl-trans-chxn)Pt(ox)]]” was tested. Which CC50 [1] did it give?
**A.** Its CC50 is 17.9 ± 7 µM.

**Q.** And the CC50 [2]?
**A.** The CC50 was 1.9 ± 0.4 µM.

**Q.** What about the CC50 [3] of the same substance?
**A.** The CC50 was 73.3 ± 48.9 µM.

**Q.** And the MTD [4]?
**A.** The MTD was 10 mg/kg.
